Assay: Liver microsome assay (metabolic stability)
Format: in vitro ADME, mouse
Conditions: 2 μM compound, 0.5 mg/mL microsomes, 37° C.
Experimental: Male CD-1 mouse liver microsomes were obtained from commercial sources (Corning #452701). The following master solution was prepared before compound addition:
Two separate experiments were performed as follows: a) With Cofactors (NADPH and UDPGA): 40 μL of 10 mM NADPH and 40 μL of 20 mM UDPGA were added to the incubations. The final concentrations of microsomes, NADPH and UDPGA were 0.5 mg/mL, 1 mM and 2 mM, respectively. b) Without Cofactors (NADPH and UDPGA): 10 μL of 20 mg/mL liver microsomes and 80 μL of ultra-pure water were added to the incubations. The final concentration of microsomes was 0.5 mg/mL. The mixture was pre-warmed at 37° C. for 5 minutes.
The reaction was started with the addition of 4 μL of 200 μM control compound or test compound solution. Verapamil was used as positive control in this study. The final concentration of test compound or control compound was 2 μM. The incubation solution was incubated in water bath at 37° C. Aliquots of 50 μL were taken from the reaction solution at 0.5, 5, 15, 30, 45 and 60 minutes. The reaction was stopped by the addition of 5 volumes of cold acetonitrile with IS (100 nM alprazolam, 200 nM caffeine and 100 nM tolbutamide). Samples were centrifuged at 3,220 g for 40 minutes. […] The in vitro half-life (in vitro t1/2) was determined from the slope value of the LC-MS signal of the test compound.

CLint (μL/min/mg protein) (replicate 1) (replicate 1): 91.87 μL/min/mg protein
CLint (μL/min/mg protein) (replicate 2) (replicate 2): 94.28 μL/min/mg protein
Structure (SMILES): Cc1n[nH]c2c1C(c1cc(CO)cc(-c3cccc(CC(N)=O)c3)c1)(C(C)C)C(C#N)=C(N)O2 (centres unmarked) [HK-X3]

From patent US10934305B2, “SHMT inhibitors” (The Trustees of Princeton University, priority 2016, dated 2021)
